Experimental data: patent publication US20150099800A1, “NOVEL LIPASE INHIBITORS, REPORTER SUBSTRATES AND USES THEREOF” (Northeastern University, priority 2012, published 2015)

By UniProt entry, the sequences of proteins in these tests, tags left out. Residues count along the entry.
UniProt P97612, 30-579 limits assumed: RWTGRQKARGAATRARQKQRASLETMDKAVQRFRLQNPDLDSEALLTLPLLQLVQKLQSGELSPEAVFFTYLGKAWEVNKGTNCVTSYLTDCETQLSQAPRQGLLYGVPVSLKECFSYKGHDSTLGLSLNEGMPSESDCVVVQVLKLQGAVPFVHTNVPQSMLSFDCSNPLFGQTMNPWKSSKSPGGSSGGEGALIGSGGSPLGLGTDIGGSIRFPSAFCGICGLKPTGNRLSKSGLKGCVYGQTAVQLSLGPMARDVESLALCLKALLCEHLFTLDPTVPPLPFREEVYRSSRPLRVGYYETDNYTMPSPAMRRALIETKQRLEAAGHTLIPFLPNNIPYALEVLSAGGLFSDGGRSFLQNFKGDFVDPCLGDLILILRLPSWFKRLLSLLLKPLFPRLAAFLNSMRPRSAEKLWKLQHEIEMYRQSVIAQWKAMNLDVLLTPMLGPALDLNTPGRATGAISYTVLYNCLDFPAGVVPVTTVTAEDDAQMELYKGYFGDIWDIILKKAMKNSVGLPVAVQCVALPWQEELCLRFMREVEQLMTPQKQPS
UniProt Q99685, whole entry: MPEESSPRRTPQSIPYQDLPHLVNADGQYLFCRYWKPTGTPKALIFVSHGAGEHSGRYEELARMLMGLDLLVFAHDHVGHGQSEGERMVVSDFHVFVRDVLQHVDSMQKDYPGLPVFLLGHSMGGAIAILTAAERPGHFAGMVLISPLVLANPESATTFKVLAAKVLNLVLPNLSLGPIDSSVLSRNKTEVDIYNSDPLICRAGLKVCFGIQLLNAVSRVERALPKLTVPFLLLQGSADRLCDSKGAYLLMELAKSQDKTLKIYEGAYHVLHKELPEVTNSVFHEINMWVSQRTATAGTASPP

Assays:
rFAAH = biological target: T1, rFAAH (Rattus norvegicus, UniProt P97612); experiment: rFAAH coumarin substrate fluorescence assay; assay type: biochemical
T1 construct: His (N); made in house; host or cells: E. coli (cell line provided by the Cravatt group)

[1] = biological target: T2, Pancreatic Lipase (Porcine) (Sus scrofa, UniProt P00591); assay type: biochemical
T2 construct: purchased Sigma L3126
T2 sequence (P00591 1-450): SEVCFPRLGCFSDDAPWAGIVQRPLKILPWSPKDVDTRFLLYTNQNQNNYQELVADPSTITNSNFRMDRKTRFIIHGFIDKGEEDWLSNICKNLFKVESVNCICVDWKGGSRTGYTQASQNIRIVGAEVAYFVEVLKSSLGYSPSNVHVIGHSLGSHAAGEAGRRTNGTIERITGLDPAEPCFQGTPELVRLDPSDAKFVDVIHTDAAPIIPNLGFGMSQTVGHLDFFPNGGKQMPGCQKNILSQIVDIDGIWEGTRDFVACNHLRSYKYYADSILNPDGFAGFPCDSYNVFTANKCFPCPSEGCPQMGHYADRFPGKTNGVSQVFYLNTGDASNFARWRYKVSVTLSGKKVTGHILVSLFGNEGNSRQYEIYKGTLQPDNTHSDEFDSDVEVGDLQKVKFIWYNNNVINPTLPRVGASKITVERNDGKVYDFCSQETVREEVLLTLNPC

hDAGLα [2] = biological target: T3, hDAGLα (Homo sapiens, UniProt Q9Y4D2)
T3 sequence (Q9Y4D2 1-1042): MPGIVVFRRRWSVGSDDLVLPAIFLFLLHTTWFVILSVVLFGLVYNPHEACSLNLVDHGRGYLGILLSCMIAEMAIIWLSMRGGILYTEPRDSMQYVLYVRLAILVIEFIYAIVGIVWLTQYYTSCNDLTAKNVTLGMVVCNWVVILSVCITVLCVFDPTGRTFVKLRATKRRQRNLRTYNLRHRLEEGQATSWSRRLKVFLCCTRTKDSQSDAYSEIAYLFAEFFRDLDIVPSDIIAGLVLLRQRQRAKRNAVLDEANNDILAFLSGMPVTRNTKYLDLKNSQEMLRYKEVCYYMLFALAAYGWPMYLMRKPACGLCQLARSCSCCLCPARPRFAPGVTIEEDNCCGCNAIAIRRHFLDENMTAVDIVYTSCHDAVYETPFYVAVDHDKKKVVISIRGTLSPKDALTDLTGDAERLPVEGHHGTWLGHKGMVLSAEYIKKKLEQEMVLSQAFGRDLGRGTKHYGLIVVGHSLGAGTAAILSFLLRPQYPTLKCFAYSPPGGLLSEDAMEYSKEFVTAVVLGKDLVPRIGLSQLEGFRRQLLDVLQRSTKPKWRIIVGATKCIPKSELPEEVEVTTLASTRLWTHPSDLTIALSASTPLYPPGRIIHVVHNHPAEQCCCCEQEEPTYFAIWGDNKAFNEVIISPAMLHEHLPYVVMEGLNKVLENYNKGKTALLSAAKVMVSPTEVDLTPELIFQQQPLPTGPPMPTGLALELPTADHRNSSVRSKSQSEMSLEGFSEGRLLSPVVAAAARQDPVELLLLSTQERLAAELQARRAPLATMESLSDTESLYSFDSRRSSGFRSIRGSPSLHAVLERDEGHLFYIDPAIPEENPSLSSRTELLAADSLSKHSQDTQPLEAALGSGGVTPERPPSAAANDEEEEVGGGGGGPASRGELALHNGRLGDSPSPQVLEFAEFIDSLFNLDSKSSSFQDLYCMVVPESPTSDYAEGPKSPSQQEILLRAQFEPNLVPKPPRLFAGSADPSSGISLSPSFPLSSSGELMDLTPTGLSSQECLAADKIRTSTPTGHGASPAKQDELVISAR

hDAGLα [3] = biological target: T3, hDAGLα; remark: listed apart in the source
MAGL = MAGL (Homo sapiens, UniProt Q99685); experiment: hMAGL coumarin substrate fluorescence assay; assay type: biochemical; set-up: The N-terminal his-tagged full length human monoacylglycerol lipase used; His (N); made in house; host or cells: E. coli
mDAGLα = biological target: T4, mDAGLα (Mus musculus, UniProt Q6WQJ1); experiment: Radio-TLC assay with [14C]SAG substrate, mDAGLα
T4 sequence (Q6WQJ1 1-1044): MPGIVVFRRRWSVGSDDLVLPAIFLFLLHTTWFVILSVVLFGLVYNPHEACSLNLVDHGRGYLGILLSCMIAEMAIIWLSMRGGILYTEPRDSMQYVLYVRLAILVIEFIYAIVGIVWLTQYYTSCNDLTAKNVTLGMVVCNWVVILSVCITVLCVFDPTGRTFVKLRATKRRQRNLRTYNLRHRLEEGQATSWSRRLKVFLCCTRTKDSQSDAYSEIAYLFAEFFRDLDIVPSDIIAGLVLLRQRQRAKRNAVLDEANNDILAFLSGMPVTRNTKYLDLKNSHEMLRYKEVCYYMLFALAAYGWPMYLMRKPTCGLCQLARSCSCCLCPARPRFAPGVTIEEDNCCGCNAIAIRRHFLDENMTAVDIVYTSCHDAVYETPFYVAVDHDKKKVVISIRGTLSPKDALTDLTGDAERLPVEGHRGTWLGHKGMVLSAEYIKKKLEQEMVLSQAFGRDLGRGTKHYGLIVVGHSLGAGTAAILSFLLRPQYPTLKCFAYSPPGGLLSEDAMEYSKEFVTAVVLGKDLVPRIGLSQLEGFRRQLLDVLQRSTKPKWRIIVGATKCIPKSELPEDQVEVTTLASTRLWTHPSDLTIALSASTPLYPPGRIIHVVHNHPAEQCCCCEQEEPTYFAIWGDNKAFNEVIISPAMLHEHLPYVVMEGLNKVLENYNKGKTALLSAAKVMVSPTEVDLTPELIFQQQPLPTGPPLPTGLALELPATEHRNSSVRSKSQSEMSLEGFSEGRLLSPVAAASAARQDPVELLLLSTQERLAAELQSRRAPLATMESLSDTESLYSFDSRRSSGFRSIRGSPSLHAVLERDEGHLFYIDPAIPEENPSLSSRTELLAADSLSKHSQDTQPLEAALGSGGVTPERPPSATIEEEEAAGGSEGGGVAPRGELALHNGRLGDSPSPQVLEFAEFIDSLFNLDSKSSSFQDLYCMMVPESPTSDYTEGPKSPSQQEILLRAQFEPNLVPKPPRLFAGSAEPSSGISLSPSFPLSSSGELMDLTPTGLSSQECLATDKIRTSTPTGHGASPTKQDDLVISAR

| SMILES | rFAAH inhibition at 10 μM (%) (rFAAH) | Pancreatic Lipase (Porcine) inhibition at 10 μM (%) [1] | hDAGLα inhibition at 10 μM TLC detergent free (%) (hDAGLα [2]) | hDAGLα inhibition at 10 μM detergent free (%), FRET, marker ° (hDAGLα [3]) | hMAGL inhibition at 10 μM (%) (MAGL) | hDAGLα inhibition at 10 μM detergent free (%), FRET (hDAGLα [3]) | mDAGLα inhibition at 1000 nM (%) (mDAGLα; 1000 nM) | mDAGLα inhibition at 10000 nM (%) (mDAGLα; 10000 nM) |
| --- | --- | --- | --- | --- | --- | --- | --- | --- |
| O=S(=O)(F)Cc1ccccc1 [PMSF, phenylmethylsulfonylfluoride] | 100^E % | 17% | 19% | 8° % | 5% | – | – | – |
| CCCCCCCCCCCCCCCCS(=O)(=O)F [n-C16H33SO2F, Palmitylsulfonyl fluoride] | – | 29% | – | 40, 94° % | – | 40, 94° % | 18% | 64% |
